TSG101-PTAP inh – blocks PTAP/TSG101 interaction to inhibit HIV-1 budding; Q99816; Fluorescence polarization, FITC-PTAP peptide / Tsg101 binding; Potency, µM (top dose mostly 115 µM), most hits filed as inhibitors; 340,000 tested, under 10 active; active means well fitted inhibition curve with a large enough effect in the main read-out, with a control signal flat, not every such curve was filed as active; inconclusive means small, poorly fitted or top-dose-only effect, or effect the other way, or a change in a side signal; inactive means no such curve, though single readings can be large or run the other way
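Tsg101 binding domain (10 uM final) was mixed with compound and a FITC-labeled PTAP peptide (50 nM final) in HEPES pH 7.5 buffer with NaCl, Tween 20, EDTA and TCEP; fluorescence polarization was read after 20 min at r.t.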
Nrf2 inh – inhibitors of Nrf2 signaling; 360,000 tested, 2.1% active; AID 504444; A549 ARE-Fluc reporter, luciferase luminescence, 18-24 h; Potency, µM (series often up to 46 µM), usual class: inhibitors; further: nearly all actives have a fitted effect of over 60% in size
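Reporter: ARE-Fluc in A549. Exposure: 18-24 h, 37 °C, 5% CO2, 5% FBS OPTI-MEM. Readouts: fluorescent cytotoxicity (CellTiter-Fluor), then luminescent Nrf2 signal after BugLite.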
A549 viability – counter-screen for Nrf2 inhibitors: cytotoxicity in A549 cells. A549 ARE-Fluc cells, CellTiter-Fluor viability, 18-24 h. Potency, µM (series often up to 46 µM), most hits filed as inhibitors. 390,000 tested, 0.16% active. AID 504648
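Cytotoxicity counterscreen: CellTiter-Fluor fluorescence was measured in A549 ARE_Fluc cells after 18-24 h of compound exposure in a concentration series. The subsequent BugLite luminescent read reports ARE-luciferase activity.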
Glioma ERSR ind – ER stress response induction in glioma | U87-MG GRP78 promoter luciferase reporter, 16 h | Potency, µM, hits mostly activators | 420,000 tested, 0.02% active | AID 602332; further: series mostly up to about 76 µM; nearly all actives have a fitted effect of over 35% in size
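Stably transfected U87-MG human glioma cells carrying a GRP78-based luminescent sensor were seeded at 1000 cells/well, pin-dosed with compounds and incubated 16 h. Luciferase reagent was then added, and end-point luminescence was read after 10 min at room temperature.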
miR-21 reporter – miR-21 reporter, rising signal | HeLa miR-21 FLuc reporter, luciferase, 48 h | Potency, µM (doses to about 38.3 µM) | 340,000 tested, under 10 active | AID 2288; active = well fitted rising curve with a large enough effect; inconclusive = small, poorly fitted or top-dose-only effect; inactive = no such curve, though single readings can be large or run the other way;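 note: miR-21 action dims this reporter so a rising signal means less miR-21 action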
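Using DMEM plus 10% FBS, HeLa miR-21-FLuc cells are incubated with test compounds (final up to about 40uM) for 48 hours; firefly luciferase signal is then imaged following reagent-mediated lysis.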
Nrf2 activator – Nrf2 pathway activation; AID 624171; 410,000 tested, 0.31% active; AREc32 ARE-luciferase reporter (MCF7-derived line), luminescence, 24 h; Potency, µM (highest dose often 46.1 µM), hits mostly activators; further: nearly all actives have a fitted effect of over 65% in size
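Luminescent ARE reporter assay in AREc32_Fluc cells: overnight plating at 37 deg C, 24 hr compound incubation, Steady-Glo added, 30 min RT before reading.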
Hits are given with their value; . = inactive; ? = inconclusive; / = no result; [ ] = dose if it differs, or a comment. Hits are enriched below; roughly 2.1% of the tested compounds scored in any of these assays. Unless noted, the call rests on the fitted dose curve; in most records, active means well fitted curve in the direction sought with a large enough effect; inconclusive means small, poorly fitted or top-dose-only effect, or another doubt; inactive means no such curve, though single readings can be large; an effect the other way counts as inactive or inconclusive.

SMILES | TSG101-PTAP inh | Nrf2 inh | A549 viability | Glioma ERSR ind | miR-21 reporter | Nrf2 activator
Cc1cccc(N2CCN(C(=O)c3ccc(NC(=O)CC4SC(N5CCCC5)=NC4=O)cc3)CC2)c1C (stereo not given) | . | ? | . | . | / | .
O=C(CC1SC(N2CCCC2)=NC1=O)Nc1ccc(C(=O)N2CCN(c3cccc(Cl)c3)CC2)cc1 (stereo not given) | . | 21µM | ? | . | / | .
CN(Cc1ccccc1F)C(=O)c1ccc(NC(=O)CC2SC(N3CCCCC3)=NC2=O)cc1 (stereo not given) | . | . | . | . | / | .
CN(Cc1ccccc1F)C(=O)c1cccc(NC(=O)CC2SC(N3CCCCC3)=NC2=O)c1 (stereo not given) | . | 18µM | . | . | / | .
Cc1ccnc(NC(=O)c2ccc(NC(=O)CC3SC(N4CCCC4)=NC3=O)cc2)c1 (stereo not given) | . | ? | . | . | / | .
O=C(CC1SC(N2CCCC2)=NC1=O)Nc1ccc(C(=O)Nc2ncccc2O)cc1 (stereo not given) | . | . | . | ? | / | 16µM
C=C1C=C(C(F)F)n2ncc(C(=O)N3CCN(c4ccccc4)CC3)c2N1 | / | / | / | . | / | /
Cc1ccc(C(C(=O)NC2CCCC2)N(C(=O)Cc2cccs2)c2ccc(C)c(C)c2)o1 (stereo not given) | . | 18µM | ? | . | . | .
Cc1ccc(C)c(N(C(=O)Cc2cccs2)C(C(=O)NC2CCCC2)c2ccc(C)o2)c1 (stereo not given) | . | . | .[1.84 µM] | . | . | .
Cc1ccc(N(C(=O)CCl)C(C(=O)NC2CCCCC2)c2cccnc2)cc1C (stereo not given) | . | . | . | . | . | 14µM
O=C(Nc1ccc2c(c1)OCO2)N1CCN(c2ncc(C(F)(F)F)cc2Cl)CC1 | . | 9.2µM | . | . | . | .
O=C(c1ccc2c(c1)OCCO2)N1CCN(c2ncc(C(F)(F)F)cc2Cl)CC1 | . | ? | . | . | / | .
COC(=O)c1ccccc1NC(=O)C1CC(c2ccc(F)cc2)=NO1 (stereo not given) | . | 4.1µM | . | . | . | .
CCCNC(=S)N1CCN(C(c2ccccc2)c2ccccc2)CC1 | . | . | . | . | . | .
CCNC(=S)N1CCN(C(c2ccccc2)c2ccccc2)CC1 | . | 26µM | . | . | . | .
O=C(COc1ccc(C(=S)N2CCCC2)cc1)Nc1ccccc1C(F)(F)F | . | 23µM | ? | . | . | .
O=C(CC(=O)c1ccccc1)Nc1ccccc1C(F)(F)F | . | 16µM | . | . | . | .
O=C(CC(=O)Nc1ccccc1C(F)(F)F)Nc1ccccc1C(F)(F)F | . | . | . | . | . | .
CSc1ccc(CN(C)Cc2cc(=O)oc3c(C)c(C)ccc23)cc1 | . | ? | . | . | . | .
CCOc1ccc(CN(C)Cc2cc(=O)oc3c(C)c(C)ccc23)cc1OC | . | 16µM | . | . | / | .
CCOC(=O)N1CCN(Cc2ccc3c(c2)CN(C(=O)c2ccc(C#CC(C)(C)O)o2)CCO3)CC1 | / | / | / | . | / | /
CCOC(=O)Cn1c(=O)oc2cc(S(=O)(=O)N(C)Cc3ccccc3)ccc21 | . | . | . | . | . | .
CCCN(c1ccc(C(C)C)cc1)S(=O)(=O)c1ccc2c(c1)oc(=O)n2CC(=O)OCC | / | . | . | 20µM | . | .
CCOc1cc(/C=N/NC(N)=S)cc(Br)c1OCc1ccccc1C | . | ? | . | . | . | .
CCOc1cc(/C=N/N=C(\N)c2nonc2N)cc(Br)c1OCc1cccc2ccccc12 | . | 21µM | ? | . | . | .
SMILES | TSG101-PTAP inh | Nrf2 inh | A549 viability | Glioma ERSR ind | miR-21 reporter | Nrf2 activator
COc1cc(/C=N/N=C(\N)c2nonc2N)cc(OC)c1O | . | ? | . | . | . | .
COc1cc(/C=N/N=C(/N)c2nonc2N)cc(Br)c1OCc1cccc(C)c1 | . | 21µM | . | . | . | .
OC[C@H]1O[C@@H](n2cnc3c2NC=NC[C@H]3O)C[C@@H]1O | / | / | / | . | / | /
C#Cc1ccc(CN2CCC(C(=O)Nc3ccc(Oc4ccccc4)nc3)CC2)cc1 | . | 18µM | ? | . | . | .
O=C(Nc1ccc(Oc2ccccc2)nc1)C1CCN(Cc2cccc(F)c2)CC1 | / | 18µM | ? | . | . | .
O=C(Nc1ccc(Oc2ccccc2)nc1)C1CCN(Cc2ccco2)CC1 | . | . | . | . | . | .
CCn1c(=O)sc2cc(NC(=O)c3cccc(OC)c3)ccc21 | / | . | . | . | . | .
CCCn1c(=O)sc2cc(NC(=O)c3ccc(OC)c(Br)c3)ccc21 | / | 16µM | . | . | . | .
O=C(Nc1nc(=O)c2ccccc2s1)c1ccccc1 | . | ? | . | . | . | 2µM
CC(=O)Nc1nc(=O)c2ccccc2s1 | . | . | . | . | . | ?
COc1cc2c(s1)c1cnn(Cc3ccccc3F)c(=O)c1n2C | / | . | . | / | / | /
O=[N+]([O-])c1ccc(O/N=[N+](\[O-])N2CCCCC2)c([N+](=O)[O-])c1 | / | / | / | . | / | /
COc1ccc2c(c1)-c1nc(-n3ncc(C(=O)NCc4cccc(C)n4)c3C3CC3)ncc1CC2 | / | / | / | . | / | /
Cn1c(N2CCOCC2)c(/C=N/O)c2ccccc21 | . | ? | . | . | . | .
Cn1c(N2CCOCC2)c(/C=N/OC(=O)c2ccc(F)cc2)c2ccccc21 | . | 0.65µM | . | . | ? | .
CC(=O)O/N=C/c1c(N2CCOCC2)n(C)c2ccccc12 | . | 6.5µM | / | . | . | .
Cc1ccc(C(=O)O/N=C/c2c(N3CCOCC3)n(C)c3ccccc23)cc1 | . | ? | . | . | . | .
CCOc1ccc(CCNC(=O)c2nc(-c3cccc(F)c3)n3c2CCCCC3)cc1OCC | / | 21µM | ? | . | . | .
CN(C(=O)c1nc(-c2cccc(F)c2)n2c1CCCCC2)c1ccccc1F | / | ? | . | . | . | .
CC1CCN(C(=O)c2ccc(Br)c(S(=O)(=O)N3CCOCC3)c2)CC1 | . | . | . | . | . | .
CC1CCN(S(=O)(=O)c2cc(C(=O)N3CCN(c4ncccn4)CC3)ccc2Br)CC1 | . | 23µM | . | . | . | .
CCn1c(C(=O)N2CCCC(C(=O)NCCCc3ccccc3)C2)cc2sccc21 (stereo not given) | . | 16µM | ? | . | . | .
COc1cccc(C2c3c(ncn(-c4ccc(C)cc4)c3=N)Oc3ccc4ccccc4c32)c1 (stereo not given) | / | . | . | / | / | /
CCc1cccc(NC(=O)Cn2c(=O)n3nc(-c4cccc(F)c4)nc3c3ccccc32)c1 | / | / | . | . | . | 5.6µM
O=C(Cn1cc2ccccc2n1)N1CCOc2ccc(C(O)C3CCCCC3)cc2C1 (stereo not given) | / | / | / | . | / | /
